Measurements taken from US20090264384A1, “INDOLE, BENZIMIDAZOLE, AND BENZOLACTAM BORONIC ACID COMPOUNDS, ANALOGS THEREOF AND METHODS OF USE THEREOF” (Nuada, Inc., priority 2004, published 2009).

Molecular target: T1, ETB(h) (Homo sapiens, UniProt P24530)
T1 construct: expressed in transfected cells; host or cells: CHO cells
T1 sequence (P24530 27-442): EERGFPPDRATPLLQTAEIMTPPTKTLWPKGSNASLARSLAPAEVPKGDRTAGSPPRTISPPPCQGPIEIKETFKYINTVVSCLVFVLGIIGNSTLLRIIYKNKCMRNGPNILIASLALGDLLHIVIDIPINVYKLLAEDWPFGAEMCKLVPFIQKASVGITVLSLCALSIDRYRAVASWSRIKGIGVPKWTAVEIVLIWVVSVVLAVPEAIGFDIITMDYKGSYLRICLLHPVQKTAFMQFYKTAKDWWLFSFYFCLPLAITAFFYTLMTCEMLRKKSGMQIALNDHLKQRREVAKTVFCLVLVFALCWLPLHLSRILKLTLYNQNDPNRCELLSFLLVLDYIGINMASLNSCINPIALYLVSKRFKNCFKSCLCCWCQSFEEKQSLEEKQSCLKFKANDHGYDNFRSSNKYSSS
Test: ETB(h) binding assay

## endothelin-3
  IC50: 230 pM
  Ki: 200 pM
